In test [1] the target is T1, Aromatase (Homo sapiens, UniProt P11511). Description: Inhibition of human recombinant microsomal aromatase using 7-methoxy-4-trifluoromethylcoumarin as substrate by Lineweaver-Burk plot analysis. An outline of the steps: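 CYP19 MFC-to-HFC fluorometric assay run at several substrate concentrations. Inhibition data shown as Lineweaver–Burk plots to define mechanism. Ki derived by nonlinear least-squares regression.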

Sequences of proteins named here, by UniProt entry; tags and fusion partners are left off. A change or cut given only in a name is not applied to a line headed by its entry.
UniProt P11511: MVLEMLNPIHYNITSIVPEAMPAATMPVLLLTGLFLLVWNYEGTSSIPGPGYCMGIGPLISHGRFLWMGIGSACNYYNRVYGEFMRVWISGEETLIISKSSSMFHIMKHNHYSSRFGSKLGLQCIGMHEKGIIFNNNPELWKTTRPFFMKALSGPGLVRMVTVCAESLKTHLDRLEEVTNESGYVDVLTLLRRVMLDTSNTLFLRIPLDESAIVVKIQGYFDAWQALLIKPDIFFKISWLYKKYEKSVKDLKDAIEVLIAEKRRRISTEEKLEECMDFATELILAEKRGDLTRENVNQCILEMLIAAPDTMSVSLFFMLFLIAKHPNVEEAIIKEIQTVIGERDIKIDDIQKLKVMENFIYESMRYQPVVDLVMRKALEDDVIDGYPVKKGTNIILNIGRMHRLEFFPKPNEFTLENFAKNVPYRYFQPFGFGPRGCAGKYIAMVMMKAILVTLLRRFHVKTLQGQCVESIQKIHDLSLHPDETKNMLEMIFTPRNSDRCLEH

Test [2] addresses T1, Aromatase. The test can be described thus: Inhibition of human recombinant microsomal aromatase-mediated 7-methoxy-4-trifluoromethylcoumarin conversion to 7-hydroxytrifluoromethylcoumarin preincubated for 10 mins measured after 30 mins by fluorescence assay. The gist of the method:
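Recombinant human CYP19 with MFC substrate in 0.1 M potassium phosphate pH 7.4; samples in methanol or methanol/dichloromethane, prewarmed 10 min at 37 °C with NADPH-generating cofactor mix (NADP+, MgCl2, glucose-6-phosphate, G6PDH), then 30 min reaction, stopped with 0.1 M Tris base in acetonitrile. HFC fluorescence read at ex/em 409/530 nm against standard curve; IC50 from one-site competition fit versus vehicle control.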

In test [3] the target is T1, Aromatase. The test can be described thus: Inhibition of human recombinant placental aromatase. The gist of the method:
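Recombinant human aromatase (CYP19) in microsomal incubations with fluorogenic substrate MFC, read as conversion to HFC. Compounds in methanol or methanol/dichloromethane, prewarmed 10 min at 37 °C with NADPH-regenerating mix, then enzyme/substrate in 0.1 M potassium phosphate pH 7.4 added. Incubation 30 min, stopped with Tris base in acetonitrile, fluorescence at 409/530 nm. Activity given as % of vehicle control.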

In general, Ki refers to the dissociation constant of the complex between target and ligand, obtained from inhibition or displacement. A word on the IC50: it is the point on the concentration scale where inhibition reaches its midpoint. `CCC(=C(c1ccc(O)cc1)c1ccc(OCCN)cc1)c1ccccc1`: the Ki at Aromatase [1] is 77 nM. The IC50 on Aromatase [2] was 102 nM; on Aromatase [3] it was 90 nM.

Consider `CC/C(=C(\c1ccc(O)cc1)c1ccc(OCCN)cc1)c1ccccc1`, for which the Ki at Aromatase [1] was 442 nM. The IC50 at Aromatase [2] was 1030 nM.

Take `CC/C(=C(/c1ccc(O)cc1)c1ccc(OCCN)cc1)c1ccccc1`: the Ki on Aromatase [1] stood at 48 nM. The values for the IC50 on Aromatase [2] and at Aromatase [3] were 76.8 nM and 90 nM, respectively.

Source of the values: ChEMBL document CHEMBL2385050 (J Med Chem, 2013).
